Assay: Ratio of IC50 for full-length human GCYH1A expressed in Escherichia coli to IC50 for Neisseria gonorrhoeae GCYH1B

Nc1nc(OC[C@H](O)CO)c2[nH]c(=O)n([C@@H]3O[C@H](CO)[C@@H](O)[C@H]3O)c2n1
Ratio IC50: 3

From ChEMBL document CHEMBL4613223, “Structure-based design of guanosine analogue inhibitors targeting GTP cyclohydrolase IB towards a new class of antibiotics” (Bioorg Med Chem Lett, 2020)
